Experimental data from publication PMC7101356, “Cross-site and cross-platform variability of automated patch clamp assessments of drug effects on human cardiac currents in recombinant cells” (Scientific Reports, 2020).

Chains of the proteins cited; added tags and fusions are not shown. Lines headed by an entry give the natural chain unless they say otherwise; changes in a name come on top.
UniProt Q12809: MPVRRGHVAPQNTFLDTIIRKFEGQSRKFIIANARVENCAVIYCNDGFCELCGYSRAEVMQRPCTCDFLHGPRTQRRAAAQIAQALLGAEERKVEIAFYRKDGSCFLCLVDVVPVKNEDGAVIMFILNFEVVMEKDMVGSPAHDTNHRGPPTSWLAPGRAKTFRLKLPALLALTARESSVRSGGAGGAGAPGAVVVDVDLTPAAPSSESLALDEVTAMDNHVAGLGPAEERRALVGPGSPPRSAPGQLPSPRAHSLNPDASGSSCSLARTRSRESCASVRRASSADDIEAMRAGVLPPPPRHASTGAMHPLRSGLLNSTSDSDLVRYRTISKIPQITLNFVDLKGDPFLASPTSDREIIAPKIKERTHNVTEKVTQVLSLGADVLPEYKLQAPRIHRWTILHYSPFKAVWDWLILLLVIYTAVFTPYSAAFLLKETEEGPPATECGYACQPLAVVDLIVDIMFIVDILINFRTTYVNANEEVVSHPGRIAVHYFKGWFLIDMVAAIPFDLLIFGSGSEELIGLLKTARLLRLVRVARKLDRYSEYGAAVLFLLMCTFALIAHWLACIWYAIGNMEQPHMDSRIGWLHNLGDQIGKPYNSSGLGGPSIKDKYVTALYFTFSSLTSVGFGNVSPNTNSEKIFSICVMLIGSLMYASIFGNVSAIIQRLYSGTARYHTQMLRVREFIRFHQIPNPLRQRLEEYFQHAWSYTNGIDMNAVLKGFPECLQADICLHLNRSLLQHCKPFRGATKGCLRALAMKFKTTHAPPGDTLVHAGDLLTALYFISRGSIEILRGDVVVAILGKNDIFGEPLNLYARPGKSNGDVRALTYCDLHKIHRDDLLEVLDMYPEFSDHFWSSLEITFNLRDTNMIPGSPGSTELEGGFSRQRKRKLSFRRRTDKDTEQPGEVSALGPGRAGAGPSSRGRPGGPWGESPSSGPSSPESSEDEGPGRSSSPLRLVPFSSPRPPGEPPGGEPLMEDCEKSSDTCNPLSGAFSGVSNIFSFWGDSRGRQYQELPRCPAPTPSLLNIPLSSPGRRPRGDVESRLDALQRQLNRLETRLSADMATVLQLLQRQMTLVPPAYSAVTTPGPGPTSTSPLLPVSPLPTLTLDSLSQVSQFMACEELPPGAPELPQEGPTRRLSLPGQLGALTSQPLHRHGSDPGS

Assays:
hERG [1] = target: T1, hERG (Homo sapiens, UniProt Q12809); test: cell-based
hERG [2] = target: T1, hERG; test: Automated patch clamp, hERG current block, Milnes protocol (site s06)

## Cc1nccn1CC1CCc2c(c3ccccc3n2C)C1=O (centres unmarked) [ond, ondansetron]
hERG [1]; hERG K+ current log IC50, s01_p1, CHO, 23 °C
  IC50: 1820 nM
hERG [1]; hERG K+ current log IC50, s02_p2, HEK293, 22–26 °C
  IC50: 2570 nM
hERG [1]; hERG K+ current log IC50, s03_p2, HEK293, room temperature
  IC50: 537 nM
hERG [1]; hERG K+ current log IC50, s05_p4, HEK293, 22–24 °C
  IC50: 1450 nM
hERG [1]; hERG K+ current log IC50, s15_p1, HEK293, 22–23 °C
  IC50: 1000 nM
hERG [1]; hERG K+ current log IC50, s16_p3, HEK293, room temperature
  IC50: 1910 nM
hERG [1]; hERG K+ current log IC50, s18_p1, CHO, 35 °C
  IC50: 2240 nM
hERG [1]; hERG K+ current log IC50, s19_p3, CHO, room temperature
  IC50: 1260 nM
hERG [1]; log IC50, hERG K+ current inhibition, […]
  IC50: 1350 nM
hERG [1]; log IC50, hERG K+ current inhibition, site_platform s10_p3
  IC50: 3980 nM
hERG [1]; log IC50, hERG K+ current inhibition, site_platform s12_p2
  IC50: 1150 nM
hERG [1]; log IC50, hERG K+ current inhibition, site_platform s13_p2
  IC50: 1550 nM
hERG [1]; log IC50, hERG K+ current inhibition, site_platform s14_p1
  IC50: 309 nM
hERG [2]
  IC50: 891 nM
